The text below walks through data of ChEMBL document CHEMBL1177792, “Pre-clinical characterization of aryloxypyridine amides as histamine H3 receptor antagonists: identification of candidates for clinical development” (Bioorg Med Chem Lett, 2010).

Chains of the proteins cited; added tags and fusions are not shown. Lines headed by an entry give the natural chain unless they say otherwise; changes in a name come on top.
UniProt Q9QYN8: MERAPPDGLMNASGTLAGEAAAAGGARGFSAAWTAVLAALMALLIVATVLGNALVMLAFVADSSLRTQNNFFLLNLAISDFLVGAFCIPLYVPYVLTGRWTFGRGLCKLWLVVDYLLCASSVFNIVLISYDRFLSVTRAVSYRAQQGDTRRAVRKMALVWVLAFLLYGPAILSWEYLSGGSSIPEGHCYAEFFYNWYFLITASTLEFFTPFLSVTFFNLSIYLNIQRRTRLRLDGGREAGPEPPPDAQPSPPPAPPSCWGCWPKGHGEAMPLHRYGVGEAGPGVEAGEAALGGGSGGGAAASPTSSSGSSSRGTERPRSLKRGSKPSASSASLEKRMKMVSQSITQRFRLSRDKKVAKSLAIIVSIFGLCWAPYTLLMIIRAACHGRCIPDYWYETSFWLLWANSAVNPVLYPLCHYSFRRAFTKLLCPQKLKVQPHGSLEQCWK
UniProt Q9Y5N1: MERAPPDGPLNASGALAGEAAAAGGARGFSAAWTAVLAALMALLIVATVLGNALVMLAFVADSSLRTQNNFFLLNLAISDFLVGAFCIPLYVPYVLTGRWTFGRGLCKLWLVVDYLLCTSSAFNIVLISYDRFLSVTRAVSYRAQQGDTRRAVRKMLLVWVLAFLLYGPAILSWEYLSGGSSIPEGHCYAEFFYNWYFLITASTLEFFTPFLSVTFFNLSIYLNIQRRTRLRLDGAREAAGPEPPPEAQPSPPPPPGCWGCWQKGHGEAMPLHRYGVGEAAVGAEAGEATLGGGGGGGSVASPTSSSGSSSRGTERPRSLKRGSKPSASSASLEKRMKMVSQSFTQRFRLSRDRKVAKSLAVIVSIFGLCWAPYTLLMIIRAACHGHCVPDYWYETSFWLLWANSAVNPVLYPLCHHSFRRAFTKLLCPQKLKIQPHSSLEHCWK

In assay [1] the target is T1, Histamine H3 receptor (Rattus norvegicus, UniProt Q9QYN8). Briefly: Binding affinity to histamine H3 receptor in rat brain. The class given is tissue-based.
Assay [2] addresses T1, Histamine H3 receptor. Briefly: Antagonist activity at rat histamine H3 receptor expressed in human SK-N-MC cells assessed as inhibition of forskolin-induced cAMP accumulation after 6 hrs. The assay is classed as functional, cell-based. The settings on record: read-out: pA2 (converted).
Assay [3] concerns the target T2, Histamine H3 receptor (Homo sapiens, UniProt Q9Y5N1). Nature of the assay: Displacement of [125I]-iodoproxyfan from human recombinant histamine H3 receptor expressed in human SK-N-MC cells after 1 hr by scintillation counting. The class given is cell-based. For orientation: Displacement assays read how much labelled ligand stays bound in the presence of the test substance.

The target in assay [4] is T2, Histamine H3 receptor. Nature of the assay: Antagonist activity at human histamine H3 receptor expressed in human SK-N-MC cells assessed as inhibition of forskolin-induced cAMP accumulation after 6 hrs. The class given is functional, cell-based. The settings on record: read-out: pA2 (converted).

`O=C(c1ccc(Oc2ccc(F)cc2)nc1)N1CCCN(C2CCC2)CC1` [JNJ-39220675]: the Ki (commonly the equilibrium dissociation constant of an inhibitor or competing ligand from its target) came out at 23 nM at Histamine H3 receptor [1] and 1.4 nM at Histamine H3 receptor [3]. In addition, the Kb on Histamine H3 receptor [2] was 3.55 nM; on Histamine H3 receptor [4], 0.38 nM.
